Test results taken from publication PMC10199925, “Cyclodextrin carboxylate improves the stability and activity of nisin in a wider range of application conditions” (NPJ Science of Food, 2023).

What was measured:
[1] = Thermogravimetric analysis (TG/dTG); format: physicochemical; settings: dry powder, N2 50 mL/min, 10 °C/min, 30 to 600 °C
Description: The thermal behavior of the nisin-SACD complexes was evaluated using a thermogravimetric (TG) analysis system (TGA2, Mettler–Toledo, Schwerzenbach, Switzerland) under N2 (50 mL/min) at a 10 °C/min heating rate over a temperature range from 30 to 600 °C.

[2] = previous study; cited from earlier work

Substance: succinic acid-β-cyclodextrin [SACD]
- maximum decomposition peak temperature (dTG) [1]: 326 °C
- weight loss at the end of heating (TG) [1]: ~67%
- water dispersibility relative to β-CD [2]: over 50 fold
